# Yeast UUG start: modulators of start codon recognition fidelity in yeast; AID 602363; activity score, % at 18.7 µM; S. cerevisiae UUG-firefly luciferase reporter, luminescence/redox ratio; 0.13% of 350,000 active;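 active = replicate mean at a twofold rise or more, about +100% in these data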;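 note: firefly luciferase made from a UUG start codon reports start codon fidelity; reporter light over untreated wells divided by growth signal over untreated wells; some hits fall short of that in this replicate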
# Arr AP2 block: inhibitors of beta-arrestin/AP2 binding, primary screen, biochemical, GPCR trafficking, flow cytometry; beta-arrestin 1 C-terminal peptide binding to AP2 beta2-adaptin appendage (human); FITC-arrestin peptide / GST-AP2 beads; AP2 beta2 appendage carries R879A mutation; inhibition, % at 10 µM; actives 0.31% (n = 340,000);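 active = inhibition above a set limit, near 3 SD of compounds lacking own fluorescence, cut at about 54% in these data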
#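 Material – GST-tagged AP2 beta2-adaptin appendage (R879A) on 4 µm glutathione beads · Probe or stimulus – fluorescein-tagged arrestin peptide at 50 nM final · Timing – 12 min plus 1 h, RT · Detection – bead flow cytometry, FITC channel · Read-out basis – inhibition as reduced fluorescein signal on beads, percent · Medium – PBS plus Tween 20 (0.05%) and BSA (0.1%)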
# Pemphigus Ab inh: inhibitors of pemphigus antibody binding to DSG3, primary screen, biochemical, bead-based, flow cytometry, scFv-GFP; Desmoglein-3 (Homo sapiens), P32926; DSG3-coupled beads, scFv-anti-DSG3-GFP binding; hits give low values; binding (percent of control), % at 10 µM; actives 0.48% (n = 310,000); AID 588358, 2011;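 active = binding more than 3 SD below its plate's average and above zero; inconclusive = below that plate limit but binding exactly zero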;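 note: hits lower antibody fragment binding to DSG3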
# TbMetRS inhib: T. brucei MetRS inhibitors, primary screen, biochemical, luminescence | purified T. brucei MetRS, ATP depletion, Kinase-Glo luminescence | actives 0.4% (n = 360,000) | inhibition, % at 11.9 µM | AID 624268, 2012 | methionyl-tRNA synthetase (Trypanosoma brucei brucei);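 active = inhibition above a per-plate cutoff of the control wells' mean inhibition plus 3 SD, cut at about 5.5% in these data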
#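 Material: parasite MetRS enzyme / Replication: singlicate, one well per compound / Signal: luminescence of leftover ATP / Schedule: 2 h aminoacylation at 25 °C after 15 min preincubation / Medium: HEPES-MgCl2-KCl buffer plus DTT, spermine, BSA, pyrophosphatase / Doses: 11.9 µM single point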
# Rce1 inh: yeast Rce1p protease inhibitors, primary screen, biochemical, fluorescence, cell-free homogeneous; AID 2563, 2010; yeast membranes, quenched prenylated peptide cleavage fluorescence; calls only; actives 0.27% (n = 290,000);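 active = fall in fluorescence gain of 50% or more versus controls, with final raw signal at or below 3038400; inconclusive = same 50% fall but final raw signal above 3038400; inactive = fall in fluorescence gain under 50%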
# Tb MetRS conf: T. brucei MetRS inhibitors, confirmation, biochemical, luminescence. shares compounds with TbMetRS inhib. T. brucei MetRS enzyme, luminescence (ATP depletion). inhibition, % at 11.9 µM. actives 93% (n = 1,400); in the data active = inhibition above about 7%
# Jurkat cytotox: Jurkat T cell cytotoxicity, cytotoxicity control for T. brucei MetRS inhibitor project, luminescence, high throughput. shares compounds with TbMetRS inhib. Jurkat cells viability, ATP luminescence. inhibition, % at 8.3 µM. actives 12% (n = 1,400); in the data active = inhibition above about 15%
# Tb MetRS inh FP: T. brucei MetRS inhibitors, orthogonal assay for T. brucei MetRS inhibitor project, biochemical, fluorescence polarization; inhibition, % at 11.9 µM; shares compounds with TbMetRS inhib; AID 651607, 2012; purified T. brucei MetRS; actives 44% (n = 1,400); in the data active = inhibition above about 17%
# Numbers stand for hits; 0 = inactive; ? = inconclusive; - = not tested or not shown. A selection: hits, their analogues and other compounds. The true share with any hit is near 1.2%.
SMILES,Yeast UUG start,Arr AP2 block,Pemphigus Ab inh,TbMetRS inhib,Rce1 inh,Tb MetRS conf,Jurkat cytotox,Tb MetRS inh FP
O=C(NCC(O)c1ccc([N+](=O)[O-])cc1)Nc1ccccc1 (stereo not given),0,0,?,27,0,46,0,21
Cc1ccc(N2C(=O)CC(N(CCc3ccccc3)C(=S)Nc3ccc(N(C)C)cc3)C2=O)cc1 (stereo not given),0,0,0,74,0,46,0,29
O=C1CC(N(CCc2ccccc2)C(=S)Nc2ccccc2)C(=O)N1c1ccc(Br)cc1 (stereo not given),0,0,0,97,0,99,0,130
C[C@@H]1CN([C@@H](C)CO)C(=O)Cc2cc(NS(=O)(=O)c3cccs3)ccc2O[C@H]1CN(C)C(=O)Nc1ccc(F)cc1,0,-,-,-,-,-,-,-
CCn1c(N2CCN(CC(=O)c3c[nH]c4ccccc34)CC2)nc2c1c(=O)[nH]c(=O)n2C,0,0,0,7.8,0,19,0,0
CCCn1c(N2CCN(CC(=O)c3c(C)n(C)c4ccccc34)CC2)nc2c1c(=O)[nH]c(=O)n2C,0,0,0,0,0,-,-,-
Cc1cc(C(=O)NCC(C)C)c2ccccc2n1,0,0,0,0,0,-,-,-
Cc1cc(C(=O)NCC(=O)Nc2c(C)cccc2C)c2ccccc2n1,0,0,-,11,-,0,0,0
CNC[C@H]1OCCCC[C@@H](C)Oc2ccc(NS(=O)(=O)c3ccc(C)cc3)cc2C(=O)N([C@H](C)CO)C[C@H]1C,0,-,-,-,-,-,-,-
c1ccc(OCc2nnc3n2CCCCC3)cc1,0,0,0,0,0,-,-,-
Clc1ccc(OCc2nnc3n2CCCCC3)c(Cl)c1,-,0,0,16,0,36,0,18
Cc1cc(Cl)ccc1OCc1nnc2n1CCCCC2,-,0,0,9.4,0,20,0,0
CNC[C@H]1OCCCC[C@@H](C)Oc2ccc(NC(=O)Nc3cccc4ccccc34)cc2C(=O)N([C@@H](C)CO)C[C@H]1C,0,-,-,-,-,-,-,-
O=C(NCc1ccccc1Cl)c1ccc2c(c1)SC1=NS(=O)(=O)CCN12,-,0,0,0,0,-,-,-
O=C(NCc1cccc(Cl)c1)c1ccc2c(c1)SC1=NS(=O)(=O)CCN12,-,0,0,6.1,0,15,0,0
CC(C)NC(=O)N(C)C[C@H]1Oc2ccc(NC(=O)CCCN(C)C)cc2C(=O)N([C@H](C)CO)C[C@@H]1C,0,-,-,-,-,-,-,-
CC1CCCCN1C(=O)CN1CCC(c2nc3ccc(Cl)cc3[nH]2)CC1 (stereo not given),0,0,0,0,0,-,-,-
Clc1ccc2nc(C3CCN(Cc4ccccc4)CC3)[nH]c2c1,0,0,0,11,0,9.8,0,0
Cc1ccc(CN2CCC(c3nc4ccc(Cl)cc4[nH]3)CC2)cc1,0,0,0,8.2,0,25,0,0
O=C(c1cccc(Cl)c1)N1CCC(c2nc3ccccc3[nH]2)CC1,-,0,0,0,0,-,-,-
COc1ccc(S(=O)(=O)Nc2cccc3c2O[C@H](CN(C)C(=O)Nc2ccc4c(c2)OCO4)[C@H](C)CN([C@@H](C)CO)C3=O)cc1,0,-,-,-,-,-,-,-
C[C@H]1CN([C@@H](C)CO)C(=O)c2cc(C#CC(C)(C)O)cnc2O[C@H]1CN(C)C(=O)c1ccccc1F,0,-,-,-,-,-,-,-
CCOc1ccc(C(=O)N/N=C/c2ccc(-c3ccc(S(=O)(=O)Nc4ncccn4)cc3)o2)cc1,-,0,0,0,0,-,-,-
O=C(N/N=C/c1ccc(-c2ccc(S(=O)(=O)Nc3ncccn3)cc2)o1)c1cc2ccccc2cc1O,0,0,0,6.8,0,30,0,27
O=C(CSc1ccccc1)Nc1ccc(-c2nc3ccccc3[nH]2)cc1,-,0,0,0,0,-,-,-
SMILES,Yeast UUG start,Arr AP2 block,Pemphigus Ab inh,TbMetRS inhib,Rce1 inh,Tb MetRS conf,Jurkat cytotox,Tb MetRS inh FP
CCCOc1cccc(OCC(=O)Nc2nc3ccccc3[nH]2)c1,-,0,0,29,0,48,0,20
CCCCNc1nc2ccccc2[nH]1,-,0,0,8.0,0,14,0,0
O=C(CSc1ccc2ccccc2c1)Nc1nc2ccccc2[nH]1,-,0,0,21,0,29,0,0
O=C(COc1ccccc1)Nc1nc2ccccc2[nH]1,0,0,0,0,0,-,-,-
CCCCOc1cccc(OCC(=O)Nc2nc3ccccc3[nH]2)c1,-,0,0,36,0,48,0,0
CN(C)C(=O)C[C@@H]1CC[C@@H]2[C@@H](COc3ccc(NC(=O)Nc4cccc(Cl)c4)cc3C(=O)N2C)O1,0,-,-,-,-,-,-,-
COc1ccc(CN(C)C[C@@H]2Oc3ccc(NC(=O)C4CC4)cc3C(=O)N([C@@H](C)CO)C[C@@H]2C)cc1,0,-,-,-,-,-,-,-
CCC(=O)N[C@H]1CC[C@@H](CCn2cc(-c3cccc(OC)c3)nn2)O[C@@H]1CO,0,-,-,-,-,-,-,-
Cc1noc(C)c1NC(=O)Nc1ccc2c(c1)C(=O)N([C@@H](C)CO)C[C@@H](C)[C@@H](CN(C)C(=O)Nc1ccccc1)OCCCC[C@@H](C)O2,0,-,-,-,-,-,-,-
O=C(C[C@@H]1CC[C@H]2[C@@H](COC[C@H](O)CN2C(=O)c2cnccn2)O1)NCc1ccc(F)cc1,0,-,-,-,-,-,-,-
C[C@@H]1CN([C@@H](C)CO)C(=O)c2cc(NS(=O)(=O)c3cccs3)ccc2O[C@@H](C)CCCCO[C@@H]1CN(C)C(=O)Nc1ccccc1,0,-,-,-,-,-,-,-
O=C(Nc1ccc(F)cc1)N1C[C@@H]2[C@H](c3ccccc31)[C@H](CO)N2C(=O)c1ccccc1F,0,-,-,-,-,-,-,-
COc1ccc(CCc2nc3ccccc3n2C(CCc2ccccc2)c2nc3ccccc3[nH]2)cc1 (stereo not given),-,-,-,0,-,-,-,-
COc1ccc(CCC2=NCCN2C(CC(C)C)c2nc3ccccc3[nH]2)cc1 (stereo not given),0,-,-,12,-,20,0,0
COc1ccc(OCC(=O)Nc2cccc(-c3nc4ccccc4[nH]3)c2)cc1,0,0,0,7.1,0,12,0,31
O=C(O)CCCC(=O)Nc1cccc(-c2nc3ccccc3[nH]2)c1,0,0,0,0,0,-,-,-
